Data as given in BindingDB's records for patent US9694016 (Novartis AG, 2017).

Sequences of proteins named here, by UniProt entry; tags and fusion partners are left off.
UniProt P04049, whole entry Y340E/Y341E: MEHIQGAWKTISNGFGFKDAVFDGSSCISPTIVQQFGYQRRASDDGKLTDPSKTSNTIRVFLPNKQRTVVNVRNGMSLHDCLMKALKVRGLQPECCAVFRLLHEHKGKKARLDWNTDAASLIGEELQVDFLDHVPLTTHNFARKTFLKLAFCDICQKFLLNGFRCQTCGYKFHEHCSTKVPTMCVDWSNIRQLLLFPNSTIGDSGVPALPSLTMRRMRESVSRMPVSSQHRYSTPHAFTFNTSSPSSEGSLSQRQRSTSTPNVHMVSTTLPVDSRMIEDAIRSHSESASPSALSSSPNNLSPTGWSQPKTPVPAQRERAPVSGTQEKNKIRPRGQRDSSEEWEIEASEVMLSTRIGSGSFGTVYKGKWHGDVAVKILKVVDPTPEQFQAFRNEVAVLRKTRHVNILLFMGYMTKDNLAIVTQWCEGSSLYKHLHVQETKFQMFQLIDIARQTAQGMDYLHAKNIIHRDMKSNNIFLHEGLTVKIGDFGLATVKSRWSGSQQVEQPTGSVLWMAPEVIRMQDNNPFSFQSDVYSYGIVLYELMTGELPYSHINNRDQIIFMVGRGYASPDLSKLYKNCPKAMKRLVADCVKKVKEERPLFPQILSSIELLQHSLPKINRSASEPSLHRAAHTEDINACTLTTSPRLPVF

Biological target: RAF proto-oncogene serine/threonine-protein kinase [Y340E,Y341E] (Human, UniProt P04049, Y340E/Y341E)
Assay: Raf Activity Assay
Conditions: pH 7.5; 25 °C

`Cc1ccc(NC(=O)c2cccc(C(F)(F)F)c2)cc1-c1cc(N)nc(N2CCOCC2)c1` [US9694016, 93] gave an IC50 of 0.3 nM.
